{"source": "PubChem BioAssay AID1794808", "about": "(University of Kansas High Throughput Screening Laboratory, 2022)", "note": "The entries are a selection whose mix differs from that of the whole data set. Some of these compounds have results that are not shown, active ones among them. Calls of active or inactive are those of the source. Rule as the data show it: active = inhibition above about 50%; inactive = the rest.", "data": [{"tested_on": "Plasmodium falciparum apicoplast DNA polymerase (apPOL)", "experiment": "Pf-apPOL inhibitors, biochemical, fluorescence (AID 1794808)", "settings": "Recombinant Pf-apPOL, molecular beacon fluorescence, 1.5 h; at 10 µM; stronger effect = higher value", "values": [{"molecule": "COc1ccc(OC)c(C=C(C#N)C#N)c1", "inhibition": "inactive: -6.6%"}]}]}
